Assay results published in article PMC12447755, “β-Lactamase cleavable antimicrobial peptide–drug conjugates” (Chemical Science, 2025).

Sequences of proteins named here, by UniProt entry; tags and fusion partners are left off. Residues count along the entry.
UniProt P62593, 24-286 limits assumed: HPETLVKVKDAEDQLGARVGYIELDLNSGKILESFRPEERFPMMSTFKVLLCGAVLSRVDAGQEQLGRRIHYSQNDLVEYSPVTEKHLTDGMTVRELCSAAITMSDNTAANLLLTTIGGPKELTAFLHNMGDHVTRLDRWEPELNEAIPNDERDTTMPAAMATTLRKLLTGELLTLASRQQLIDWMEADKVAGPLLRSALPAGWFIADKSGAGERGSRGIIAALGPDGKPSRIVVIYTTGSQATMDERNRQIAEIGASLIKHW

Biological target: recombinant β-lactamase (TEM-1 expressed in E. coli) (Escherichia coli, UniProt P62593)
Experiment: Nitrocefin hydrolysis by recombinant β-lactamase (Abs482)
Settings: 1 nM β-lactamase, 100 µM nitrocefin in MH-medium, Abs482, Fig. S6b

With `O=C(Cc1cccs1)N[C@@H]1C(=O)N2C(C(=O)O)=C(/C=C/c3ccc([N+](=O)[O-])cc3[N+](=O)[O-])CS[C@H]12` [nitrocefin] the “time to full hydrolysis” value was “about 20 min”.
